{"source": "patent US20130323314A1", "about": "“Novel Nanoparticles of Lactoferrin Useful for Preparing a Pharmaceutical Composition Facilitating Easy Delivery of the Drug and a Process for Preparing the Same” (UNIVERSITY OF HYDERABAD, priority 2011, published 2013)", "assay": "Pharmacokinetics and tissue distribution after intravenous administration", "settings": "Liver, rat", "note": "Structures can show the parent of a compound that is named as a salt. Marks after values point to notes of the source that are not given here.", "data": [{"molecule": "COc1cccc2c1C(=O)c1c(O)c3c(c(O)c1C2=O)C[C@@](O)(C(=O)CO)C[C@@H]3O[C@H]1C[C@H](N)[C@H](O)[C@H](C)O1", "note": "[Doxo, Doxorubicin hydrochloride]", "values": [{"measurement": "AUC", "value": "713.776 (h) * (μg/g)"}]}]}
